Values quoted from earlier work in US20230372437A1, “COMPOSITIONS AND METHODS FOR THE TREATMENT OF HAIR LOSS AND OTHER CONDITIONS” (ProTransit Nanotherapy LLC, priority 2020, published 2023).

Test system: normal scalp
Conditions: topical

Question: For Nc1cc(N2CCCCC2)nc(N)[n+]1[O-] [minoxidil], which “Topically applied minoxidil absorbed through a normal scalp” value is on record?
Answer: about 1.7%
